Reference: patent publication US20070219767A1, “ATOMIC COORDINATES OF ALBUMIN DRUG COMPLEXES AND METHOD OF USE OF PHARMACEUTICAL DEVELOPMENT” (priority 2003, published 2007)

Protein sequences, listed by entry. Tags and fused reporters are not part of them. Residues count along the entry.
UniProt P02768, 25-609: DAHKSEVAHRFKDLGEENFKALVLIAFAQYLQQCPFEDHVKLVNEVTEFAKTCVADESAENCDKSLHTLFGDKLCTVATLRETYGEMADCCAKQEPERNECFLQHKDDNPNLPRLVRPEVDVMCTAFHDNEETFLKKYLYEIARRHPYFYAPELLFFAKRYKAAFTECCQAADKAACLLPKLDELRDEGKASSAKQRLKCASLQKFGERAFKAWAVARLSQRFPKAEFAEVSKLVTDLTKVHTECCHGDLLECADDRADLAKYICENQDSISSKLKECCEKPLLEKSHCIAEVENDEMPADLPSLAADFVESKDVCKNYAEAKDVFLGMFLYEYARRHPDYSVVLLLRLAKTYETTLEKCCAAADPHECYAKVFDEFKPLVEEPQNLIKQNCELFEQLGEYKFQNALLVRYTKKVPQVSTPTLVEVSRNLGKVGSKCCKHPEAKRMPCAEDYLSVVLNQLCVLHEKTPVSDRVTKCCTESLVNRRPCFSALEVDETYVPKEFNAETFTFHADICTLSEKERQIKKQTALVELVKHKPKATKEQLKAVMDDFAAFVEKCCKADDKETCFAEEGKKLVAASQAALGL

Biological target: human serum albumin (Homo sapiens, UniProt P02768)
Assay: X-ray crystallography of human serum albumin/drug complexes: binding location
Details: Table II, Phase II; refined coordinates; listed residues within 5 Å of bound ligand

## NS(=O)(=O)c1cc2c(cc1Cl)N=CNS2(=O)=O [Chlorothiazide]
  Binding site of the Drug-Albumin Complex (site heading the list of contacting residues): Site IB, R114, L115, R117, Y138, E141, I142, R145, H146, F149,
